Measured values taken from patent US20250250287A1, “HETEROCYCLIC COMPOUNDS, COMPOSITIONS THEREOF, AND METHODS OF TREATMENT THEREWITH” (BeiGene Switzerland GmbH, priority 2022, published 2025).

Tests used:
[1] = tested on: pERK1/2(THR202/TYR204) level in SW620 cell line (KRAS G12V); assay: KRAS G12V pERK assay (HTRF) in SW620 cell line; settings: read-out: SW620 pERK IC50; SW620 cells, 2 hrs compound treatment
[2] = target: GST-tagged GDP-loaded WT KRAS (amino acids 1-169) (Homo sapiens, UniProt P01116); assay: KRAS WT probe displacement assay (TR-FRET, with G12V assay); settings: read-out: KRAS^WT Probe Displacement Assay IC50; Table 2; WT KRAS 3 nM, biotinylated probe 1 60 nM

SMILES	IC50 [1]	IC50 [2]
C#Cc1c(F)ccc2cc(O)cc(-c3nc4c5c(nc(OC[C@@]67CCCN6C[C@H](F)C7)nc5c3F)N3CC[C@H]3CCO4)c12	171 nM	5.3 nM
Nc1cc(Cl)c(C(F)(F)F)c(-c2nc3c4c(nc(OC[C@@]56CCCN5C[C@H](F)C6)nc4c2F)N2CCCCC2CCO3)c1 (stereo partly drawn)	–	6.8 nM
